# Reference: patent US20160250285A1, “NEUROPROTECTIVE PEPTIDES” (priority 2013, published 2016)
# Entries after “also recorded” stand apart in the source; their conditions may differ.
# Key:
# [1] = tested on: primary cortical neuronal cultures
# Experimental: Briefly, cortical tissue from E18-E19 Sprague-Dawley rats was dissociated in Dulbecco's modified Eagle medium (DMEM; Invitrogen, Australia) supplemented with 1.3 mM L-cysteine, 0.9 mM NaHCOa, 10 units/ml papain (Sigma, USA) and 50 units/ml DNase (Sigma) and washed in cold DMEM/10% horse serum. Neurons were resuspended in Neurobasal (Invitrogen) containing 2% B27 supplement (B27; Invitrogen). Before seeding, 96-well sized glass wells (6 mm diameter, ProTech, Australia) or 96-well plastic plates (ProSciTech, Australia) were coated with poly-D-lysine overnight ([…]: 50 mg/mL; 70-150 K, Sigma). […] Neurons were plated to obtain ≈10,000 viable neurons for each well on day in vitro 11-12. […] On day in vitro 4 one third of the culture medium was removed and replaced with fresh Neurobasal/2% B27 containing the mitotic inhibitor, cytosine arabinofuraNOside (1 mM final concentration; Sigma). On day in vitro 8 one half of the culture medium was replaced with Neurobasal/2% B27.
# To induce excitotoxicity, 50 μl of Neurobasal/2% B27 containing glutamic acid (200 μM) or kainic acid (400 μM) or NMDA (200 μM) was added to the culture wells (100 μM glutamic acid, 200 μM kainic acid and NMDA 100 μM final concentration). Cultures were incubated at 37° C. in the CO2 incubator for 5 minutes for glutamic acid, 45 minutes for kainic acid and 10 minutes for NMDA exposure, after which time the media was replaced with 100 μl of 50% Neurobasal/2% N2 supplement (Invitrogen) and 50% balanced salt solution (BSS; see below). Cultures were incubated for a further 24 hours at 37° C. in the CO2 incubator. The untreated controls with or without glutamic acid or kainic acid treatment received the same wash steps and media additions.
# Following this step, cultures were treated as described above. Untreated controls with or without glutamic acid exposure received the same wash steps and media additions. In addition, a post-glutamic acid exposure CPP treatment (5 μM) experiment was performed for the R9 peptide and the JNKI-1D-TAT control peptide.
# For pre-glutamic acid exposure experiments, neurons were exposed to peptide(s) for a 10 minute period, immediately before or 1, 2, 3, 4 or 5 hours prior to glutamic acid exposure. […] At the relevant peptide pre-treatment time, media was removed and replaced with 100 μl of Neurobasal/2%. […] Following 5-minute glutamic acid exposure, neuronal culture wells were treated as described above. For all experiments untreated controls with or without glutamic acid treatment underwent the same incubation steps and media additions.
# Heparin (for injection) was obtained from Pfizer (1000 IU/ml). Two different heparin experiments were performed: 1. Peptides were incubated with heparin (20 IU/ml) in Neurobasal/B27 for 5 minutes at room temperature, before addition to culture wells (50 μl) for 15 minutes at 37° C. in the CO2 incubator. Following the incubation period, media in wells was removed and replaced with 100 μl of Neurobasal/2% B27 containing glutamic acid (100 μM), and subsequently treated as described above; 2. Media in wells was replaced with Neurobasal/2% B27 containing heparin (50 μl; 40 IU/ml) and incubated for 5 minutes at 37° C. in the CO2 incubator. After the incubation period, peptides or glutamate receptor blockers (MK801/CNQX) in Neurobasal/2% B27 (50 μl) were added to the culture wells and cultures incubated for a further 10 minutes at 37° C. in the CO2 incubator. Following the incubation period, media in wells was removed and replaced with 100 μl of Neurobasal/2% B27 containing glutamic acid (100 μM), and subsequently treated as described above. For all experiments, non-heparin treated peptide controls with glutamic acid treatment underwent the same incubation steps and media additions.
# Twenty-four hours after insult, neuronal cultures were examined by light microscopy for qualitative assessment of neuronal cell viability.
# [2] = tested on: primary cortical neuronal cultures; assay: In vitro ischemia / oxygen-glucose deprivation (OGD) model, neurons; format: cell-based, rat
# [3] = tested on: intracellular calcium influx in neuronal cultures; assay: Intracellular calcium influx (Fura-2 AM) after glutamic acid; format: cell-based, rat; details: peptide 5 μM for 10 min, removed before 100 μM glutamic acid (FIG. 44)
structure (smiles),measurement,setting,value
N=C(N)NCCC[C@H](NC(=O)[C@H](CCCNC(=N)N)NC(=O)[C@H](CCCNC(=N)N)NC(=O)[C@H](CCCNC(=N)N)NC(=O)[C@H](CCCNC(=N)N)NC(=O)[C@H](CCCNC(=N)N)NC(=O)[C@H](CCCNC(=N)N)NC(=O)[C@H](CCCNC(=N)N)NC(=O)[C@H](CCCNC(=N)N)NC(=O)[C@H](CCCNC(=N)N)NC(=O)[C@H](CCCNC(=N)N)NC(=O)[C@H](CCCNC(=N)N)NC(=O)[C@H](CCCNC(=N)N)NC(=O)[C@H](CCCNC(=N)N)NC(=O)[C@@H](N)CCCNC(=N)N)C(=O)O [Peptide R15],IC50,[1],190 nM
same,neuroprotective efficacy at the higher concentration,"[1]; 5 μM, dose response study",reduced
same,"neuroprotection, peptide present during the 5 minute glutamic acid insult only",[1]; FIG. 28,effective
same,"neuroprotection, 10 minute pre-exposure removed immediately prior to insult","[1]; FIG. 29, FIG. 14",effective
same,"neuroprotection, peptide for 10 minutes, 1 to 4 hours prior to glutamic acid insult",[1]; FIG. 30,effective
same,effect of heparin on neuroprotective action,"[1]; heparin 20 IU/ml with peptide or 40 IU/ml on cultures (FIGS. 39, 40)",blocks neuroprotective actions
same,neuroprotection (neuronal viability),"[1]; peptide 15 min prior to and during glutamic acid exposure, viability 24 h, MTS",showed significant neuroprotection
same,"efficacy at higher concentrations, added post-in vitro ischemia",[2]; FIG. 3b,reduced efficacy
same,neuroprotection when added for 15 minutes after OGD,"[2]; FIGS. 31, 20, 22, 1 μM and 5 μM in FIG. 31",Neuroprotection is displayed
same,neuroprotection when added post-in vitro ischemia/OGD,"[2]; added after anaerobic incubation until experiment end (FIGS. 3b, 16, 17)",displayed neuroprotective effects; also recorded: effective
same,calcium influx after glutamic acid,[3],to varying degrees reduced calcium influx
